Laboratory results published in patent US6440434B1, “Skin care composition” (Conopco, Inc., priority 1999, dated 2002).

Tests used:
[1] = system: acyl CoA retinol transferase (ARAT); assay: in vitro Microsomal Assay of retinol esterification, ARAT catalyzed (retinyl palmitate); format: biochemical, bovine; details: solvent blank = 100% ester formation
[2] = system: LRAT and ARAT catalyzed retinol esterification; assay: in vitro Microsomal Assay, retinol esterification overall (statements in words); format: biochemical, bovine

## oleyl hydroxyethyl imidazoline
[1]; 10 μM test compound
  % INHIBITION, ARAT: 14%
[1]; 100 μM test compound
  % INHIBITION, ARAT: 90%
[2]
  retinol esterification inhibition (in words): potent retinol esterification inhibitors
